The subject of this assay is pPDF1.2-GUS-tNOS transgene. The assay is described as follows: β-glucuronidase activity in seedlings of pPDF1.2-GUS-tNOS Arabidopsis lines germinated on jasmonic acid. The following applies: Arabidopsis thaliana. Type of assay: in vivo, Arabidopsis thaliana ecotype C24. The procedure: The ability of the pPDF1.2-GUS-tNOS transgene to respond to jasmonic acid treatment was first assessed on the progeny of six independent T0 transgenic Arabidopsis lines. Seeds of each of these lines were germinated aseptically, either on Murashige and Skoog agar medium containing 1% sucrose and 50 μM kanamycin or the same medium supplemented with 10 μM jasmonic acid. […] The β-glucuronidase activity was normalized to the total protein content in each sample, as determined by the method of Bradford (1976) using bovine serum albumin as a […].

Experimental findings from patent publication US20020035738A1, “Plant protection method” (priority 1996, published 2002) are described below.

Like-named read-outs stand apart in the source and are kept apart here.

In the case of `CC/C=C\C[C@H]1C(=O)CC[C@@H]1CC(=O)O` [jasmonic acid], the fold induction at 10 µM reads like this: (read-out: Fold induction of β-glucuronidase activity, transgenic line 3, JA-treated vs control, 10 μM jasmonic acid) 25.2; (read-out: Fold induction of β-glucuronidase activity, transgenic line 4, JA-treated vs control, 10 μM jasmonic acid) 8.7; (read-out: Fold induction of β-glucuronidase activity, transgenic line 5, JA-treated vs control, 10 μM jasmonic acid) 9; (read-out: Fold induction of β-glucuronidase activity, transgenic line 6, JA-treated vs control, 10 μM jasmonic acid) 14.5; (read-out: Fold induction of β-glucuronidase activity, transgenic line 7, JA-treated vs control, 10 μM jasmonic acid) 9.7; (read-out: Fold induction of β-glucuronidase activity, transgenic line 19, JA-treated vs control, 10 μM jasmonic acid) 25.2.
